Consider three compounds from patent publication US11590232B2, “Bioconjugates of neuropeptides derivatives” (CENTRE NATIONAL DE LA RECHERCHE SCIENTIFIQUE, priority 2018, dated 2023).

Data set [1] has as its system central or peripheral opioid receptors. As to the kind of experiment: Opioid receptor blockade with naloxone or naloxone methiodide before agonist, Hargreaves test. The format is in vivo, Sprague-Dawley rats. As to conditions: 10 min after morphine 1 mg/kg; NaI 0.5 mg/kg s.c. 15 min before.
For data set [2] the following is noted: mouse serum, 37° C.

Take `CN1CC[C@]23c4c5ccc(O)c4O[C@H]2[C@@H](O)C=C[C@H]3[C@H]1C5` [morphine]: in data set [1], the “PWL after NaI pre-administration” value is 3.20 ± 0.59 s.

Take `CC(C)=CCC/C(C)=C/CC/C(C)=C/CC/C=C(\C)CC/C=C(\C)CCC(=O)NC(Cc1ccc(O)cc1)C(=O)NCC(=O)NCC(=O)NC(Cc1ccccc1)C(=O)NC(CC(C)C)C(=O)O` (stereo not drawn) [LENK-SQ-Am, Leu-enkephalin-squalene Bioconjugate with Amide Spacer]: in data set [2], the “release of free LENK peptide” value is listed as “no peptide was released”. `CC(C)=CCC/C(C)=C/CC/C(C)=C/CC/C=C(\C)CC/C=C(\C)CCCOC(=O)COCC(=O)NC(Cc1ccc(O)cc1)C(=O)NCC(=O)NCC(=O)NC(Cc1ccccc1)C(=O)NC(CC(C)C)C(=O)O` (stereo not drawn) [LENK-SQ-Dig, Leu-enkephalin-squalene Bioconjugate with diglycolic Spacer]: in data set [2], the “time of maximum release of the peptide still attached to its linker” value was determined as 45 min.
